{
  "sequences": {"note": "Sequences of proteins named here, by UniProt entry; tags and fusion partners are left off. Residues count along the entry.", "UniProt P36897, 34-503 limits assumed": "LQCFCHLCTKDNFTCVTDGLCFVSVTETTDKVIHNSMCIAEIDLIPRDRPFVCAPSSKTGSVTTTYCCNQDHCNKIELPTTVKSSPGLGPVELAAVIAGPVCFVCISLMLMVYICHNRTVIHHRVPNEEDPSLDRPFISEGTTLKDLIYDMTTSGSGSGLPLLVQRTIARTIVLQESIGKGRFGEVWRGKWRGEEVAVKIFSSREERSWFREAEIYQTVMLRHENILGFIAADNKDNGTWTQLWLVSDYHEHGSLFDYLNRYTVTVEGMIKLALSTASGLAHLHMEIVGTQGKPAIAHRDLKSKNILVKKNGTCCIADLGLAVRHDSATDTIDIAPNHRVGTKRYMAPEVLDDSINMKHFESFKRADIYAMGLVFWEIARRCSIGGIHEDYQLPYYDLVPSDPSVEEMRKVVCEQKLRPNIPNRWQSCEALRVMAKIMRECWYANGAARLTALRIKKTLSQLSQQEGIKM"},
  "source": "patent US11584745B2",
  "about": "“Aromatic heterocyclic compound, intermediate thereof, preparation method therefor, and pharmaceutical composition and use thereof” (SHANGHAI YINGLI PHARMACEUTICAL CO., LTD, priority 2018, dated 2023)",
  "target": "ALK5 (Homo sapiens (Human), UniProt P36897)",
  "experiment": "Evaluation experiment of ALK5 enzyme activity inhibition IC50 (ADP-Glo kinase assay)",
  "assay_type": "biochemical",
  "conditions": "read-out: ALK5 IC50; 25 nM ALK5, 0.1 mg/mL peptide TGFbR1, 7 μM ATP, 30° C. 1 hour, ADP-Glo luminescence",
  "data": [
    {"smiles": "N#Cc1cnc2ccc(-n3cncc3-c3cccc(C(F)(F)F)n3)cn12", "values": [
      {"measurement": "IC50", "value": "> 10", "unit": "µM"}
    ]}
  ]
}
